# Source: patent publication US20110318344A1, “Tumor Treatment” (MEDIZINISCHE UNIVERSITAET WIEN, priority 2009, published 2011)
# Columns and labels:
# MDAH-2774 cells = assay: Proliferation assay (cell number by CASY cell counter, doubling time); type: cell-based, human; conditions: MDAH-2774, HCRP1-silenced vs controls (FIG. 7B)
# Protocol: The human ovarian carcinoma cell line MDAH-2774 was cultured in RPMI medium with 10% FCS (fetal calf serum), 50 units/ml penicillin G, and 50 μg/ml streptomycin sulfate at 37° C. in a humidified atmosphere of 95% air with 5% CO2. three different shRNA constructs complementary exclusively to the HCRP1 mRNA in addition to 1 nonsense construct serving a control were cloned into the vector pSilencer 4.1-CMV neo. Transfection was performed with Lipofectamine 2000 according to the manufacturers protocol (Invitrogen, Carlsbad, Calif., USA). Stable clones were selected with 700 μg/ml G418, picked and sub-cultured with 350 μg/ml G418. Silencing efficiency was quantified by qRT-PCR and western blot.
# To maintain the logarithmic phase, cells were split at intervals of 48 hours, along with the determination of the cell number by a CASY cell counter (Innovatis AG, Bielefeld, Germany). This procedure was performed in triplicates over a time-span of 6 days and confirmed by a replication of the whole experiment. From the obtained data doubling times (dt) were calculated and depicted as dt-1.
# SK-OV-3 cells = assay: as above; type: cell-based, human; conditions: SKOV-3, HCRP1-silenced vs controls (FIG. 7A)
# Protocol: The SK-OV-3 cell line was cultured equally the MDAH-2774 cell line except for the use of McCoy's medium. For applying the Tet-Off inducible system, founder cell lines were generated by transfecting SK-OV-3 cells with the pTet-Off vector (neo^r) encoding a tetracyclin repressible transactivator (tTA). Resistant colonies were selected with 200 μg/ml G418 and characterized by transient transfection with the luciferase reporter plasmid (pTRE-Luc), whose promoter is induced by the transactivator. Luciferase activity in the presence and absence of tetracycline was measured to identify cells with maximal promoter inducibility. […] These two founder cell lines were used to establish cells inducible for HCRP1-specific shRNA constructs (Open Biosystems; #V2HS 21202, #V2HS 21203), which were cloned into the SIN-TREmiR30-PIG vector (purr) downstream of the tetracycline inducible promoter. Thus, presence of tetracycline in the culture medium would suppress shRNA expression, while its withdrawal would induce the knock-down of HCRP1. […]
# To maintain the logarithmic phase, cells were split at intervals of 48 hours, along with the determination of the cell number by a CASY cell counter (Innovatis AG, Bielefeld, Germany). […] From the obtained data doubling times (dt) were calculated and depicted as dt-1.
substance,measurement,setting,value
Cetuximab: monoclonal antagonistic antibody against EGFR,dependence of the anti-proliferative effect on HCRP1 expression,MDAH-2774 cells,observed only in the controls
same,dependence of the anti-proliferative effect on HCRP1 expression,SK-OV-3 cells,observed only in the controls
